Laboratory results: article PMC3592791, “Fluorescence-Based High-Throughput Functional Profiling of Ligand-Gated Ion Channels at the Level of Single Cells” (PLoS ONE, 2013)

The chains behind the UniProt entries cited, without tags or fusion partners. Residues count along the entry.
UniProt P48167, 23-497: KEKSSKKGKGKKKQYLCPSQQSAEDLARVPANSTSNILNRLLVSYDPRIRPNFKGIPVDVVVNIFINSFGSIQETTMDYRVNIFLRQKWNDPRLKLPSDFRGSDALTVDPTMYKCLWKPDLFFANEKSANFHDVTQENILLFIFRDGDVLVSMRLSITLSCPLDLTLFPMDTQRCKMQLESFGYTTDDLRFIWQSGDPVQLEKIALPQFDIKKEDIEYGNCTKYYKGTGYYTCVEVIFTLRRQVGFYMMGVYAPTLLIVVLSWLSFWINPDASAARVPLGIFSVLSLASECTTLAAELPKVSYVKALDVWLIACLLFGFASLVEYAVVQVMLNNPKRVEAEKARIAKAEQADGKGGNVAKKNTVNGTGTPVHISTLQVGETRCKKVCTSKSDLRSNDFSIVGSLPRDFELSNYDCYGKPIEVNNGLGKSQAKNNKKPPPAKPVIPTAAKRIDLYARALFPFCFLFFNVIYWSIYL

What was measured:
α2β GlyR = molecular target: T1, α2β GlyR (Homo sapiens, UniProt P23416+P48167); assay type: cell-based; details: read-out: Average half-maximal activation by glycine (EC50), control conditions
T1 construct: expressed in transfected cells; host or cells: HEK293
Experimental: (§1) plated into 60-mm culture dishes and were transfected when approx. 80% confluent. YFP and GlyR chloride channel subunits were transfected in 1∶1 (YFP and α1-3 GlyR homomers) or 2∶1∶1 ratio (YFP, GlyR α1-3 homo and α1-3β GlyR heteromers) with a total cDNA quantity of 1 µg. Cells were transfected using calcium phosphate precipitation transfection technique, as described in Sambrook et al.. […] We have published a detailed comparison of five transient transfection methods employed routinely in the laboratory for this purpose.
(§2) The human α1, α2 and α3 GlyR plasmid DNAs were subcloned into the pcDNA3.1 plasmid vector and the human β subunit plasmid DNA was subcloned into pIRES2-EGFP plasmid vector. […]
(§3) Following termination of transfection, cells were trypsinized by adding 0.7 mL of 0.25% trypsin–EDTA solution (Gibco BRL), resuspended into DMEM, and 2.5×10^3 cells, suspended in 40 µL DMEM, were plated into each well of a transparent 384-well plate for fluorescence imaging experiments. […]
(§4) Images of fluorescent cells were segmented and quantitatively analyzed using a modified version of DetecTIFF® software. In brief, images were segmented using an iterative size and intensity-based thresholding algorithm and the fluorescence signal of identified cells was calculated as the mean of all pixel values within the area of a cell. […]

α2 GlyR = molecular target: T2, α2 GlyR (Homo sapiens, UniProt P23416); assay type: cell-based; details: read-out: Averaged glycine EC50
T2 construct: expressed in transfected cells; host or cells: HEK293
T2 sequence (P23416 28-452): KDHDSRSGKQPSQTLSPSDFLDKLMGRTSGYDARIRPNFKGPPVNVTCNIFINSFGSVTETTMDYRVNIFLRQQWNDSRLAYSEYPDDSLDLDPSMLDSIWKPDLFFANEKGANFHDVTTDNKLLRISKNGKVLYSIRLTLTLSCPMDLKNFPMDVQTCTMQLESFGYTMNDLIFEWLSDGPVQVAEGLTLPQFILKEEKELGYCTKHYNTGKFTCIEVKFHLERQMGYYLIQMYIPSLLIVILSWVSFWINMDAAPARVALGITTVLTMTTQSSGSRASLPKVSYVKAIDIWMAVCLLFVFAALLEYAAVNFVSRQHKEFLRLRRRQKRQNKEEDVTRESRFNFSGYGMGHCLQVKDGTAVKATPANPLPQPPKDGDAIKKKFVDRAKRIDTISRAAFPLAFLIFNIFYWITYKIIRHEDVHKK
Experimental: as §1, §2, §3, §4

For NCC(=O)O [glycine], the EC50 (α2β GlyR) was 30 ± 2 µM and the EC50 (α2 GlyR) was 49 ± 2 µM.
